In patent US20210205413A1, “SELECTIVE TREG STIMULATOR RUR20kD-IL-2 AND RELATED COMPOSITIONS” (Nektar Therapeutics, priority 2018, published 2021):

Assay: Solution phase stability by HPLC
Type: physicochemical
Conditions: 1.0 mg/mL solution pH 5; RT, 5° C., −20° C. up to 7 days; RP-HPLC
Method: Size exclusion high performance liquid chromatography (SEC-HPLC) can also be used to determine the purity and characterize an RUR20kD-IL-2 composition using an Agilent 1200 series instrument fitted with a diode array detector (UV at 280 nm) and a Yarra SEC-2000 column (Phenomenex), and an eluent flow rate of 0.225 mL/minute. The mobile phase is 0.2M ammonium acetate (pH 5.5) at a volume ratio of 80:20 with acetonitrile. The diluent/formulation buffer contained 10 mM sodium acetate, 200 mM sodium chloride, 2% sucrose, at a pH of 5.0. Frozen RUR20kD-IL-2 composition reference material and analytical samples are thawed and diluted to 1.0 mg/mL with formulation buffer. Samples are stable up to 5 days at 5° C. in solution.
The stability of solutions of 1.0 mg/mL of an RUR20kD-IL-2 composition (˜1 mg/mL of rhIL-2 equivalent in 10 mM sodium acetate, 200 mM sodium chloride, pH 5, containing 2% (w/v) sucrose) are evaluated under three different storage conditions—room temperature (ambient laboratory conditions), 5° C. (refrigerated), and −20° C. at 1, 3, 5, and 7-day time points by RP-HPLC as previously described.
Differences between the RUR20kD-IL-2 composition solutions are evaluated against a control, freshly prepared RUR20kD-IL-2 composition sample solution. […]

(1,3-bis(methoxypoly(ethylene glycol)10kDcarbamoyl)-2-propanoxy)-4-butanamide)interleukin-2) [RUR20kD-IL-2]
relative difference of Di-PEG and tri-PEG species vs nominal −70° C. storage: up to 1%
